The test deals with B cell line, TNFa signaling counterscreen reporter. Put plainly: TNFa pathway inhibition counter-screen, B-lineage cells – dose response (AID 1259334).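 Further: cells stimulated with TNFa after compound preincubation.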

The structures appear in SMILES notation. Some results for these compounds are left out of this collection, so the calls shown say nothing about other tests. Calls of active or inactive are those of the source. No stated cut-off is given here; in the data, active means AC50 below about 11 µM. Where only a bound is given, the exact number is not on record here.

This note sets out measurements from PubChem BioAssay AID1259334 (Broad Institute, 2017).

Turning to `C=C(C)C#CC(O)(C(=O)OC1CCN(C)CC1)c1ccccc1` (stereo unspecified), the AC50 was inactive: > 20 µM.
